The values that follow come from ChEMBL document CHEMBL5247649, “Comparative Efficacy and Selectivity of Pharmacological Inhibitors of DYRK and CLK Protein Kinases” (J Med Chem, 2023).

Sequences of proteins named here, by UniProt entry; tags and fusion partners are left off. A change or cut given only in a name is not applied to a line headed by its entry.
UniProt P49759: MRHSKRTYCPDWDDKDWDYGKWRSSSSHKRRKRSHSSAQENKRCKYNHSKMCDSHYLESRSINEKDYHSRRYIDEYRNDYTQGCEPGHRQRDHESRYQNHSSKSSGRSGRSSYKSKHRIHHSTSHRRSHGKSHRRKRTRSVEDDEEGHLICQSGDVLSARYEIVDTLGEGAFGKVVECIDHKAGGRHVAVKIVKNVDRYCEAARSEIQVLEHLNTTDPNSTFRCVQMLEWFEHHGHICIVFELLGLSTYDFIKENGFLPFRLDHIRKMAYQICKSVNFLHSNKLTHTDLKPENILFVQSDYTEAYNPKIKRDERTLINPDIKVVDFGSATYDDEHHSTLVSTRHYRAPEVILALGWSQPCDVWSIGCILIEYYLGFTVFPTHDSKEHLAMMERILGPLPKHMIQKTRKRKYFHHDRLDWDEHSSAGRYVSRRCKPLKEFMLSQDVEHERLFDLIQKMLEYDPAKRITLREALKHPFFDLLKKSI
UniProt P49760, whole entry: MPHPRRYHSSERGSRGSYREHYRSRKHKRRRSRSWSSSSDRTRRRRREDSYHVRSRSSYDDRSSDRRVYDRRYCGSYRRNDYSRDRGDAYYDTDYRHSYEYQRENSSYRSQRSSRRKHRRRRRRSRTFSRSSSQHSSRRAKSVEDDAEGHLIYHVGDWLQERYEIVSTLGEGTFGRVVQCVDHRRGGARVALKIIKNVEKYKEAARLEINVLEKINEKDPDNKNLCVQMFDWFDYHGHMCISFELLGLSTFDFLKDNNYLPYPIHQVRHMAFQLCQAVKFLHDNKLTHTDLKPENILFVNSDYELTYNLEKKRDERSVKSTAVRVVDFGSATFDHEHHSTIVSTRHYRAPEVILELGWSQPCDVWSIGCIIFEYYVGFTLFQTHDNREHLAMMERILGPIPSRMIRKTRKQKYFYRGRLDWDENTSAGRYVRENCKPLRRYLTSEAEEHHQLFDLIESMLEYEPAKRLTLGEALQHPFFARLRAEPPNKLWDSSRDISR
UniProt P49841: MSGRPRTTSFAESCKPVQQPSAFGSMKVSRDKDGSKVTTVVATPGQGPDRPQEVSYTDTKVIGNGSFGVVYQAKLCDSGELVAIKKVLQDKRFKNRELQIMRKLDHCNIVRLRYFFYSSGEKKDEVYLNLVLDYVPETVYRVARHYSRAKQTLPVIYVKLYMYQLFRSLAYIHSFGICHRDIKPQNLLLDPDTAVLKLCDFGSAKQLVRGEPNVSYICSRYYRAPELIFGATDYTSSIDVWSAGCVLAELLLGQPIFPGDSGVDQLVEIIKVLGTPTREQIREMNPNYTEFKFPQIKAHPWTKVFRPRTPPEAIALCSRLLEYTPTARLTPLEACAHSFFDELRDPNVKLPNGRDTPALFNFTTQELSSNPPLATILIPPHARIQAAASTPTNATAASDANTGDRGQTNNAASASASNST
UniProt Q00535, whole entry: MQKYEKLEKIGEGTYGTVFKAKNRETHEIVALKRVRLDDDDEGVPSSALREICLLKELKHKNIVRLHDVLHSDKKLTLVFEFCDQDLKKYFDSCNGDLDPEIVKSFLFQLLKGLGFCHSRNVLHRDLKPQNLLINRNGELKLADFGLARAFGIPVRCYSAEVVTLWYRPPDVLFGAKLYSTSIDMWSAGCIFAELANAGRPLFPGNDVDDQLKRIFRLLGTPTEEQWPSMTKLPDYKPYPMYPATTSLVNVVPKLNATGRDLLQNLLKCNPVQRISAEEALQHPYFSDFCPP
UniProt P49674: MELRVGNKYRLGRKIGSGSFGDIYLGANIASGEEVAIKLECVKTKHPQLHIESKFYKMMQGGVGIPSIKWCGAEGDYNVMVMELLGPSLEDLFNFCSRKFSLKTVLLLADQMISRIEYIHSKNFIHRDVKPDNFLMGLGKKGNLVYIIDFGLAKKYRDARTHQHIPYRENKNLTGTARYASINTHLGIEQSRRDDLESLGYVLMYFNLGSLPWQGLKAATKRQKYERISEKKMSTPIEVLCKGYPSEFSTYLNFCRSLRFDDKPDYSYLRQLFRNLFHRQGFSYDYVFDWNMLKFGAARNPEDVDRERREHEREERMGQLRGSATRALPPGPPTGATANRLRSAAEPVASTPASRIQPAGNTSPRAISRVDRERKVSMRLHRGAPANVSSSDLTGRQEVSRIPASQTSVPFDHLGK
UniProt P49761: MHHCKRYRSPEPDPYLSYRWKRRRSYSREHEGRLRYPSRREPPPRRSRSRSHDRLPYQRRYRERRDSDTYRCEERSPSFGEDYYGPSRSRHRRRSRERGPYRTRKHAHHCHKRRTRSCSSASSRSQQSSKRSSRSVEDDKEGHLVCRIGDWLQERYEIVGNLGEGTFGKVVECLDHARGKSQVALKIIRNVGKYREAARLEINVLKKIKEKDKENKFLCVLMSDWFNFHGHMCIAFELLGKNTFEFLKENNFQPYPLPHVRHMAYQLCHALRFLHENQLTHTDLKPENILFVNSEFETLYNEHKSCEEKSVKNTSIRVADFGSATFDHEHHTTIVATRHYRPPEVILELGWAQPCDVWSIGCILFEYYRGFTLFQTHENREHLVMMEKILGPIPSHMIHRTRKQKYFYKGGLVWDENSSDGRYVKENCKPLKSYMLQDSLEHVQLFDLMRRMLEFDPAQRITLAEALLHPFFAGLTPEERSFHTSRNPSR

SMILES strings stand for the structures.

Assay [1] addresses T1, Dual specificity protein kinase CLK1 (Homo sapiens, UniProt P49759).
Assay [2] concerns the target T1, Dual specificity protein kinase CLK1. The assay can be described thus: biochemical.
For assay [3], the target named is Dual specificity protein kinase CLK2 (Homo sapiens, UniProt P49760). Briefly: biochemical.
For assay [4], the target named is T2, Dual specificity tyrosine-phosphorylation-regulated kinase 3 (Homo sapiens, UniProt O43781).
T2 sequence (O43781 whole entry): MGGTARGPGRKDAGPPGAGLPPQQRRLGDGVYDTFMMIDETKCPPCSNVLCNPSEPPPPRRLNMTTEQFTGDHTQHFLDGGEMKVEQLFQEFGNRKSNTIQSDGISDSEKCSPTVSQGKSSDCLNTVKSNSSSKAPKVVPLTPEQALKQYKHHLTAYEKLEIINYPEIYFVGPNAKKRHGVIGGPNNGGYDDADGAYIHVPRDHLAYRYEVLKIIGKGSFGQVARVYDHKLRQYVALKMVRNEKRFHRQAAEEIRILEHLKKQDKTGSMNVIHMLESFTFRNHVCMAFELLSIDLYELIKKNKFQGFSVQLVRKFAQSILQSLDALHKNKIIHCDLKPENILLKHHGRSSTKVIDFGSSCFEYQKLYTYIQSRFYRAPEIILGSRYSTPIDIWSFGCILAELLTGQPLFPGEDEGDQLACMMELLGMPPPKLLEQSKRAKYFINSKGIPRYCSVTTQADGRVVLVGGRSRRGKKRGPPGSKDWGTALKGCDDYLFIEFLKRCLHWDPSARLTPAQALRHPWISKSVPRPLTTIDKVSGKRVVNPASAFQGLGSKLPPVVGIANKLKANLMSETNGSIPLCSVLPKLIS
Briefly: biochemical.

Assay [5] deals with T1, Dual specificity protein kinase CLK1. Briefly: biochemical. The source holds these as a separate data set.
In assay [6] the target is T3, Glycogen synthase kinase-3 beta (Homo sapiens, UniProt P49841).
The target of assay [7] is T3, Glycogen synthase kinase-3 beta. The assay can be described thus: biochemical.
Assay [8] has as its target Cyclin-dependent kinase 5/CDK5 activator 1 (Homo sapiens, UniProt Q00535). The assay can be described thus: biochemical. It counts as cell-based, Sf9.
In assay [9] the target is Casein kinase I isoform epsilon (Homo sapiens, UniProt P49674). The assay can be described thus: biochemical.
Assay [10] deals with Dual specificity protein kinase CLK3 (Homo sapiens, UniProt P49761). Briefly: biochemical.
In assay [11] the target is Dual specificity tyrosine-phosphorylation-regulated kinase 1A (Homo sapiens, UniProt Q13627). Briefly: biochemical.
Assay [12] has as its target T4, Dual specificity tyrosine-phosphorylation-regulated kinase 2 (Homo sapiens, UniProt Q92630).
T4 sequence (Q92630 whole entry): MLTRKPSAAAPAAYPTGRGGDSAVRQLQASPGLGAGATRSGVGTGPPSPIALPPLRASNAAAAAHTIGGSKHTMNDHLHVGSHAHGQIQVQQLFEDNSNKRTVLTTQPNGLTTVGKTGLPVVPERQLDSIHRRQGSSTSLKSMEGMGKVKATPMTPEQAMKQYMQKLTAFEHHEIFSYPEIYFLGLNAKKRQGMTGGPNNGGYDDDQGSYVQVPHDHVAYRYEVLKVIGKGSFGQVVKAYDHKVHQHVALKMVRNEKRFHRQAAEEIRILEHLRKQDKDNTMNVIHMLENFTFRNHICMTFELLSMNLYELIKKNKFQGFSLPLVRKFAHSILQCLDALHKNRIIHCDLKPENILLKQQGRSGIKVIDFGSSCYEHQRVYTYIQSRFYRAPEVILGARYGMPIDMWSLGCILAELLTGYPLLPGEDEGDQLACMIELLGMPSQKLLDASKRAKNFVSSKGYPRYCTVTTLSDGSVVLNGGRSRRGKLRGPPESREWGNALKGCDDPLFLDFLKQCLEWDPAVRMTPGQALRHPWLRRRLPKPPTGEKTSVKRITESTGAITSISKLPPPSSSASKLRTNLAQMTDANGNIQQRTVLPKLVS
Briefly: biochemical.

The target in assay [13] is T5, Dual specificity tyrosine-phosphorylation-regulated kinase 4 (Homo sapiens, UniProt Q9NR20).
T5 sequence (Q9NR20 whole entry): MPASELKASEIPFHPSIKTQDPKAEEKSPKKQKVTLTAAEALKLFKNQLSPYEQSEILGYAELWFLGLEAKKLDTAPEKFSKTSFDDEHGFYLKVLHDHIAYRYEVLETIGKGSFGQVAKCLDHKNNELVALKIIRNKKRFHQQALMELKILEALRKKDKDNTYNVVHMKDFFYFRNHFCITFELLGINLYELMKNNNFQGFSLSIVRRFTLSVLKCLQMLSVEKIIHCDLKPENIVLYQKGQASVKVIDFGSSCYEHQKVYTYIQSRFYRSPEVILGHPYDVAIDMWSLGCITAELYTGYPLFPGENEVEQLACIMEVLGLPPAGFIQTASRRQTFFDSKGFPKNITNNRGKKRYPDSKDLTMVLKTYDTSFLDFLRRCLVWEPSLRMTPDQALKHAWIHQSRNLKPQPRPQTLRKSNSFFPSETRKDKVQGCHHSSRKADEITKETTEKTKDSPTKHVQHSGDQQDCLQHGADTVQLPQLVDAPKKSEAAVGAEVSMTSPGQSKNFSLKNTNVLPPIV
Briefly: biochemical.

For the compound `O=C1NC(Nc2ccccc2)=N/C1=C\c1ccc2c(c1)OCO2`, the Kd in [1] is 0.00851 µM. The IC50 is 0.0772 µM in assay [2], 1.89 µM in [3], more than 10 µM in assay [4] and 0.0515 µM in assay [5].

Turning to `Cn1cc(-c2ccc3cnc(NC(=O)C4CCN(S(C)(=O)=O)CC4)cc3c2)cn1`, in [6], the Kd came out at 0.00375 µM. The compound also yielded an IC50 in assay [7] of 0.197 µM.

In assay [1], `CN1Cc2nn(C)c(C#N)c2-c2cnc3[nH]c(F)c(c3c2)-c2cn(nc2C(F)(F)F)CCCC1=O` yielded a Kd of 0.0418 µM. This compound had an IC50 in assay [2] of 1.12 µM.

Consider `[H]/N=C(\N/C(=N/[H])NCCCCCCNC(=N)NC(=N)Nc1ccc(Cl)cc1)Nc1ccc(Cl)cc1` [CHLORHEXIDINE], for which the IC50 in [8], in assay [9], in assay [2], in assay [10], in assay [11] and in assay [12] was more than 10 µM each time. In addition, the half-maximal inhibitory concentration (IC50) in assay [4], in assay [13] and in assay [7] was more than 10 µM throughout.

`Cc1nc2ccc(-c3cc(N)nc(N)c3)nc2n1C(C)C` had a Kd in assay [1] of 0.000228 µM. In addition, the IC50 in [2] came to 0.0161 µM; in assay [5], 0.0073 µM.

In the case of `Cn1cc(-c2ccc3occ(-c4cccc(-c5ccncc5)c4)c3n2)cn1`, the IC50 in assay [2] was 0.104 µM; in [3] it was 0.114 µM; in [10], more than 10 µM.

With `COc1ccc2c(c1)[nH]c1c(C)nccc12` [HARMINE], the IC50 in [8] was more than 10 µM.
